# Data reported in patent US9655909B2, “Personalized medicine for the prediction of therapy targeting the hedgehog pathway” (Board of Regents, The University of Texas System, priority 2012, dated 2017).
# How the values were obtained:
# [1] = system: EAC cell lines and BE3 Gli1 stable clones; experiment: IC50 evaluation for cyclopamine and GDC-0449 (cell growth); assay type: cell-based, human; settings: 48 hr
# Method: FIGS. 7A-7G. Effects of mTOR and/or HH pathway inhibitors on EAC cells. FIG. 7A. The expression of activated SHH (SHH-N) in EAC cell lines and the cell culture medium. FIG. 7B. The mRNA levels of Gli1 target genes in EAC cell lines with or without SHH treatment (1 μg/mL). The mRNA levels of Gli1 target genes are normalized to ACTIN. Error bars represent SD (n=3). FIG. 7C. IC50 of cyclopamine (top two panels) or GDC-0449 (bottom two panels) for the Gli1 stable clones. Error bars represent SD (n=4). FIG. 7D. IC50 of cyclopamine (top two panels) or GDC-0449 (bottom two panels) for the Gli1 stable clones with existence of TNFα (5 ng/mL). Error bars represent SD (n=4). FIG. 7E. IC50 of cyclopamine (top two panels) or GDC-0449 (bottom two panels) for EAC cells pre-treated with rapamycin (Rapa, 10 nM). Error bars represent SD (n=4). FIG. 7F. IC50 of cyclopamine (top two panels) or GDC-0449 (bottom two panels) for the Gli1 stable clones with rapamycin (Rapa, 50 nM) treatment. Error bars represent SD (n=4). FIG. 7G. In vivo combination therapy for subcutaneously inoculated tumors from BE3 cells using GDC-0449 (50 mg/kg) or RAD001 (10 mg/kg). […] The tumor volume measured and calculated using the formula: l×w^2, where l is the longest diameter and w is the shortest diameter. […]
# [2] = system: Gli-dependent luciferase reporter; experiment: Gli-dependent luciferase reporter assay in EAC cell lines; assay type: cell-based, human
# Method: Because Gli protein activity is a useful readout for the HH pathway (Jiang and Hui, 2008), the inventors employed a Gli-dependent luciferase reporter system (Sasaki et al., 1997) to evaluate the influence of TNFα on the HH pathway in three EAC cell lines, BE3, SKGT-4, and OE33 (Boonstra et al., 2010). […] Then, the inventors compared the activity of HH pathway in EAC cells stimulated by SHH or TNFα.
# Cells were seeded in six-well plates and transfected with GliBS or mGliBS combined with CMV-Renilla vector as an internal standard. After overnight (12-16 hr) transfection, the cells were used for further experiments. After treatment, the cells were rinsed with PBS and subjected to luciferase assay using a dual-luciferase reporter assay system (Promega) based on the manufacturer's instruction.
compound,measurement,setting,value
CC1=C2C[C@H]3[C@@H](CC=C4C[C@@H](O)CC[C@@]43C)[C@@H]2CC[C@]12O[C@@H]1C[C@H](C)CN[C@H]1[C@H]2C [cyclopamine],"IC50 value in BE3/S84E compared with BE3/EV, BE3/Gli1 and BE3/S84A",[1],much higher
same,constitutive activation of HH pathway in EAC cell lines,"[2]; Gli reporter, EAC cell lines, FIG. 9A",can be inhibited
same,mTOR/S6K1-mediated Gli1 activation,[2]; SMO inhibitors,had little effects
same,TNFα-induced Gli activity,"[2]; TNFα 5 ng/mL, 24 hr, cyclopamine 0.5, 1, 5 μM, rapamycin 10, 50, 100 nM, WYE-354 10, 20, 40 nM",did not affect
